Assay results as given in US6350768B1 (Aventis Pharma S.A., priority 1999, dated 2002).

System: purified rat motoneurons
Settings: BDNF 1 ng/ml

Nc1nc2ccc(OC(F)(F)F)cc2s1 [Riluzole, 2-amino-6-trifluoromethoxybenzothiazole]
Number of motoneurons, Mean (± SEM) (mean of 8 measurements, 4 wells, ALS serum 0.1%, Riluzole 3 × 15^−5 M alone): 7.5 | survival of the motoneurons (medium treated with riluzole alone, ALS serum): 19%
